{"source": "paper PMC4411481", "about": "“Cyclic nucleotide binding and structural changes in the isolated GAF domain of Anabaena adenylyl cyclase, CyaB2” (PeerJ, 2015)", "key": {"HEK293T cells": {"tested_on": "HEK293T cells", "experiment": "Intracellular cNMP estimation by radioimmunoassay", "assay_type": "cell-based, Human", "settings": "100 µM SNP, 2 min", "description": "Intracellular levels of cyclic nucleotide monophosphates (cNMP) were measured from the cells used for BRET measurements, or […] transfected and treated cells. Cells were lysed in 0.1 N HCl and cNMP was measured by radioimmunoassay as described earlier ([Bakre, […], 2000])."}, "[1]": {"tested_on": "HEK293T cells expressing the GAFb sensor", "experiment": "Cellular BRET assay, GAFb sensor", "assay_type": "cell-based, Human", "settings": "100 µM; forskolin 5 min, SNP 2 min, 37 °C"}}, "note": "Only a part of the results on these compounds is given; other tests are left out.", "data": [{"substance": "sodium nitroprusside", "values": [{"measurement": "intracellular levels of cGMP", "setting": "HEK293T cells", "value": "increased intracellular levels"}, {"measurement": "change in BRET ratios in live cells", "setting": "[1]", "value": "no significant changes"}]}]}
